Source: patent publication US20030114375A1, “Method for treating cystic fibrosis” (The Government of the USA, Dept of Health and Human …, priority 1994, published 2003)

Amino acid sequences for entries named in this document (tags omitted).
UniProt P25099, whole entry: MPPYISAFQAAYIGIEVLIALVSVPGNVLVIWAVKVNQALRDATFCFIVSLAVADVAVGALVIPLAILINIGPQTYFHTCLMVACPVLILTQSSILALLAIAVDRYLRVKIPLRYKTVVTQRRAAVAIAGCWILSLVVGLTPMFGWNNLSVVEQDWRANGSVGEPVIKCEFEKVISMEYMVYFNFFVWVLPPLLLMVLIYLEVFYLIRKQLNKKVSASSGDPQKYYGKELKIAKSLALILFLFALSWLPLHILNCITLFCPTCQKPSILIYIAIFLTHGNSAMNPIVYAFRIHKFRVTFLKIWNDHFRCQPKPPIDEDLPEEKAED

Molecular target: T1, A1-adenosine receptor (Rattus norvegicus, UniProt P25099)
T1 construct: Rat cerebral cortical membranes and striatal membranes were prepared; from tissue; host or cells: rat cerebral cortex membranes
Test: Inhibition of [3H]N6-phenylisopropyladenosine binding to A1 receptors

## Cn1c(=O)c2[nH]cnc2n(C)c1=O [Compound 1, theophylline, reference compound]
  Affinity for A1 receptor: little affinity
